Chains of the proteins cited; added tags and fusions are not shown.
UniProt P47746, whole entry: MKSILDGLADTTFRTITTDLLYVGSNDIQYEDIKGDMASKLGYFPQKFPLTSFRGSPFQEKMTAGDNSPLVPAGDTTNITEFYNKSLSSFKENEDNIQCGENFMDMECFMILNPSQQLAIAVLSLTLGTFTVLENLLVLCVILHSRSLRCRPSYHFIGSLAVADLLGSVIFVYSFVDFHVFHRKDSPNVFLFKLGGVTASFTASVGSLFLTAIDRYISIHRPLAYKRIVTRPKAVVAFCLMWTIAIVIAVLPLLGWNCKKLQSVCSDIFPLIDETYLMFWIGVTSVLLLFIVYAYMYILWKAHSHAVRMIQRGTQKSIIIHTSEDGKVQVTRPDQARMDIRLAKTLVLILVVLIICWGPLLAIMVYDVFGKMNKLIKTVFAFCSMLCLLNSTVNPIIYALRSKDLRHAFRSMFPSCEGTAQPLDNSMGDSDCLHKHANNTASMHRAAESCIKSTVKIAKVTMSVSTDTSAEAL

In article PMC5322940 (Cell, 2016):

Biological target: CB1 (Mus musculus, UniProt P47746)
Assay: [35S]GTPγS binding to CB1 in C57 mouse cerebellum membranes
Type: biochemical
Details: against CP55,940, mouse cerebellum

Cc1c(C(=O)NN2CCCCC2)nn(-c2ccc(Cl)cc2Cl)c1-c1ccc(Cl)cc1 [rimonabant]
Mode of antagonism of [35S]-GTPγS binding: competitive antagonism was demonstrated
